This assay in a line: Inhibition of starfish oocytes CDK1/cyclin B. More on the design: species or system Marthasterias glacialis. To be noted: oocyte.

Regarding `CC(C)[C@H](CO)Nc1nc(Nc2cccc(Cl)c2)c2ncn(C(C)C)c2n1` [PURVALANOLA], the half-maximal inhibitory concentration (IC50) was determined as 4 nM.
